Measured values as given in patent US7029865B2, “DNA molecules encoding the melanocortin 4 receptor protein from rhesus monkey” (Merck & Co., Inc., priority 1998, dated 2006).

Chains of the proteins cited; added tags and fusions are not shown. Lines headed by an entry give the natural chain unless they say otherwise; changes in a name come on top.
UniProt P33032: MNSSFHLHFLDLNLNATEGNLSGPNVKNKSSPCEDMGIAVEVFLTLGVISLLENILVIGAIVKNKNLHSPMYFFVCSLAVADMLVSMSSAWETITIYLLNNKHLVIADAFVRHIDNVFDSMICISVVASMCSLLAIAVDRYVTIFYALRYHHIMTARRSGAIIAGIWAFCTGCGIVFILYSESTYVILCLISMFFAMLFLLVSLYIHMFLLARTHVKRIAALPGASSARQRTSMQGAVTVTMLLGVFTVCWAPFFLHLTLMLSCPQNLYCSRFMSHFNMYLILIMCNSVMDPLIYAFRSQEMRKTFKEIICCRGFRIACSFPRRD

Biological target: T1, hMC-5R (Homo sapiens, UniProt P33032)
T1 construct: host or cells: cells expressing the human receptor
Assay: Competitive binding assay, [125I]-NDP alpha MSH, membranes from cells expressing hMC-5R
Details: read-out: IC50 hMC-5R

Substance: MTII
- pIC50: 9.05

Substance: NDP-alpha-MSH
- pIC50: 9.40

pIC50: −log10 of the molar value.
